Molecular target: CD44-IgG1Fc (R & D systems), recombinant human CD44 chimeric protein (human) (UniProt P16070)
Assay: competition ELISA, CD44-IgG1Fc coated at 1 µg/mL, rhPRG4 at 5 µg/mL with HMW HA or MMW HA (competitor, a polysaccharide), detection with Mab 9G3

percent reduction of rhPRG4 binding to CD44 in an excess of HMW or MMW HA: 50%
Substance: recombinant human proteoglycan 4 (rhPRG4), full-length product produced by CHO-M cells (from UniProt Q92954 25-1404) (ligand)

— patent publication US20220332839A1, “USE OF PRG4 TO TREAT CANCER” (Lubris LLC, priority 2019, published 2022)
